## Antibody variant affinities, Ab-14 heavy chain, assay B

Target peptide (SARS-CoV-2 spike, HR2 region): PDVDLGDISGINAS

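Designed CDR sequences, proposed from the first random library and measured here. Group labels follow the data file (En: ensemble of fine-tuned language models; HC: hill climbing; Gen: genetic algorithm; Gibbs: Gibbs sampling; a sequence that several methods proposed may carry one label only). Affinity was read by AlphaSeq, a pooled yeast mating assay with surface-displayed partners. After mating in shaken culture at 30 °C for 16 h, diploids were selected and their barcode pairs sequenced. Each replicate has its own calibration line, from reference interactions of the BCL2 family. The assay was run in six technical replicates.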

Parent scFv Ab-14: VH joined to VL by a 15-residue (Gly4Ser)3 linker. Changes lie in the heavy chain CDRs alone.
VH: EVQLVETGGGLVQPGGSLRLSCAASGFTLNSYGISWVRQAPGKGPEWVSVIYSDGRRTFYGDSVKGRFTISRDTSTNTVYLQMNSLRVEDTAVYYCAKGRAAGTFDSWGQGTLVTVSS
VL: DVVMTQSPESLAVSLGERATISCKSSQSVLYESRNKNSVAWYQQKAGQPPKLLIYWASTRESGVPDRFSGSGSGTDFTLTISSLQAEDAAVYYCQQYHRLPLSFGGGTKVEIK

Variants are written as CDR1, CDR2 and CDR3 of the heavy chain (limits as in the source). Parent: GFTLNSYGIS, VIYSDGRRTFYGDSVK, GRAAGTFDS.
Variants here have more than six changes.
Values are log10 of the apparent Kd in nM; lower means stronger binding.
"nd" marks a missing value. The strain was present, yet no cells mated with the target were sequenced in that replicate, which points to weak or no binding.
The authors' rule: three or more of the six replicates give a measured affinity, fewer mean a poor binder.

With GFQLDEYGIS / VIYADGRRTFYTDSVK / GGNAGTFDV [En_HC] the result was -0.71, -0.92, -0.90, -0.98, -1.01, -0.73. For GFDVEKYGIS / VIYADGYRSAYASSVK / GGEAGNFHV [En_Gibbs], the assay gave -0.54, -0.83, -0.55, -0.96, -0.67, -0.44. The variant GFDLNEYGIS / VIYADGRRTQYIDSVK / GNEAGTFDT [En_HC] gave -0.25, -0.70, -0.43, -0.20, -0.27, -0.51. For GFDLEDYGIS / VIYADGMRTAYADSVK / GNNAGTFDI [En_Gen], the assay gave 0.11, 0.09, -0.32, -0.41, 0.19, 0.42. For GFNLNEYGIS / VIYADGRRSFYSDSVK / GEIAGTFDV [En_HC], the assay gave -0.11, -0.15, -0.07, 0.00, -0.20, -0.24.

The variant GYSLEEYGIS / VIYADGRRTAYADNVK / GMSGNFGMF [En_Gibbs] showed nd, nd, nd, nd, nd, nd. With GFDLNEYGIS / VIYADGMRTAYADSVK / GNTAGTFDI [En_Gen] the result was 0.27, 0.65, 0.14, 1.55, 0.26, 0.54. With GKHLDEYGIS / VIYADGQRVFYSNTVK / GIQGFTVDV [En_Gibbs] the result was nd, nd, nd, nd, nd, nd. The variant GFDLNEYGIS / VIYADGQRTFYVDSVK / GVNAGTFDV [En_HC] showed nd, nd, nd, nd, nd, nd. The variant GFDINEYGIS / VIYADGMRQAVSQNVK / GNINQFDAV [En_Gibbs] gave nd, nd, nd, nd, nd, nd.

With GFDLNEYGIS / VIYADGKRTFYSDSVK / GNTGGTFDV [En_HC] the result was 0.14, 0.43, 0.38, 0.44, 0.39, 0.85. For GFDLDEYGIS / VIYADGKRTFYIDSVK / GETAGTFDS [En_HC], the assay gave -0.26, -1.05, -1.11, -1.13, -0.80, -0.86. The variant GFDLNEYGIS / VIYADGKRTAYTDSVK / GNTAGTFDI [En_Gen] showed -0.43, -0.74, -0.71, -1.05, -0.27, -0.13. With GFDLNEYGIS / VIYADGMRTFYVDSVK / GETAGTFDS [En_HC] the result was -0.28, -0.05, -0.13, -0.33, -0.20, 0.00. With GFDLNEYGIS / VIYADGQRTAYADSVK / GNNAGTFDL [En_Gen] the result was nd, nd, nd, nd, nd, nd.

The variant GFDLNEYGIS / VIYADGRRTFYADSVK / GNVGGSFDV [En_HC] showed 0.62, 0.52, 0.08, -0.03, 0.01, 0.09. For GFDLNEYGIS / VIYADGRRTQYIDSVK / GNTAGTFDS [En_HC], the assay gave 0.75, 1.49, 0.46, 0.26, 0.60, 0.91. The variant GFDLNEYGIS / VIYADGSRTVYADSVK / GNNAGTFDV [En_Gen] showed -0.19, -0.27, 0.25, -0.21, 0.00, -0.34. The variant GFGLGEYGIS / VIYADGRRTFYSDDVK / GNMIVAGVD [En_Gibbs] showed -0.66, -0.63, -0.54, -0.74, -1.05, -0.96. For GFDLNEYGIS / VIYADGRRTAYSDSVK / GEEAGTFDF [En_HC], the assay gave -0.12, -0.77, -0.47, -0.70, -0.40, -0.63.

The variant GFGLDEYGIS / VIYADGMRANYATSVK / GYQAGVISV [En_Gibbs] showed nd, nd, nd, nd, nd, nd. The variant GFNLAEYGIS / VIYADGRRVAYANAVK / GKNGMFFSF [En_Gibbs] gave nd, nd, nd, 0.35, nd, nd. The variant GFDLNEYGIS / VIYADGRRTQYIDSVK / GNQAGTFDL [En_HC] showed -0.44, -0.72, -0.75, -1.07, -0.99, -0.53. With GFDLDEYGIS / VIYADGSRTAYADSVK / GTNAGTFDI [En_Gen] the result was 0.50, 0.18, 0.83, 0.44, 0.05, 0.30. With GFDLNEYGIS / VIYADGRRTQYIDSVK / GEIAGTFDV [En_HC] the result was 1.25, 0.38, nd, 0.93, 0.46, 0.34.

The variant GFDLNEYGIS / VIYADGRRTFYADSVK / GQIAGTFDI [En_HC] gave -0.49, -0.69, -0.50, -0.70, -0.46, -0.44. The variant GFDLNEYGIS / VIYADGKRTAYADKVK / GEVAGTFDV [En_Gen] gave -0.39, -0.42, -0.63, -0.32, -0.69, -0.44. The variant GFNLDEYGIS / VIYADGVRTQYAQSFK / GMNFGYIAG [En_Gibbs] gave nd, nd, nd, nd, nd, nd. The variant GESLEEYGIS / VIYADGIREQYVDSVK / GRQGGFFVV [En_Gibbs] showed nd, nd, nd, nd, nd, nd. The variant GFDLDEYGIS / VIYADGKRTAYSDSVK / GNQAGTFDL [En_Gen] gave -0.30, -0.26, -0.35, -0.69, -0.60, -0.10.

For GFDIEEFGIS / VIYADGRQTAYAQKVK / GTIAGTFVD [En_Gibbs], the assay gave nd, 0.38, 0.80, 1.28, 1.06, 0.76. The variant GFDLNEYGIS / VIYADGVRTQYADSVK / GNNAGTFDV [En_Gen] showed 0.41, 1.05, -0.42, 0.30, -0.20, -0.42. The variant GFDLDEYGIS / VIYADGLRTAYSDSVK / GNVAGTFDV [En_Gen] showed -1.42, nd, -0.31, nd, nd, -2.03. With GFDLNEYGIS / VIYADGMRTYYADSVK / GNTAGTFDM [En_Gen] the result was -0.16, -0.51, -0.76, -0.32, -0.54, -0.58. The variant GFDLNEYGIS / VIYADGRRTFYADSVK / GNQAGTFDE [En_HC] gave -0.84, -0.80, -0.38, -0.33, 0.13, 0.00.

The variant GFNLDEYGIS / VIYADGRRTFYQDSVK / GEVAGTFDF [En_HC] showed -0.46, -0.03, -0.09, -0.42, -0.37, -0.28. With EFDLNEYGVS / VIYADGHRTFYADHVK / GTEAGVFFD [En_Gibbs] the result was 2.51, nd, 2.59, 2.00, nd, nd. The variant GFDLGEYGIS / VIYADGHRRAYSDDVK / GMHSGSVQT [En_Gibbs] gave 2.63, 3.40, nd, nd, 4.74, nd. For GFDLNEYGIS / VIYADGVRTAYADNVK / GNVAGTFDI [En_Gen], the assay gave -0.01, -0.02, -0.13, -0.56, -0.24, -0.43. With GFDLNEYGIS / VIYADGRRTAYLDSVK / GEAAGTFDK [En_HC] the result was -0.73, -0.53, -0.42, -0.52, -0.86, -0.56.

The variant GFDLNEYGIS / VIYADGSRQMYADNVK / GVMGIMKEV [En_Gibbs] showed 1.20, 3.13, 1.70, nd, 1.67, 2.32. For GFDLNEYGIS / VIYADGVRTQYSNSVK / NGLRYQNKL [En_Gibbs], the assay gave nd, nd, nd, nd, nd, nd. The variant GYDLNEYGIS / VIYADGRRAAYIDDVK / GNVNDGVLV [En_Gibbs] gave nd, nd, nd, nd, nd, nd. The variant GFDLNEYGIS / VIYADGRRTFYADSVK / GEVGGTFDV [En_HC] gave -0.06, 0.02, -0.29, -0.28, -0.16, 0.09. With GADINEYGIS / VIYADGRSTYYQNSFK / GHNAGTFNM [En_Gibbs] the result was nd, nd, 2.82, 2.87, nd, nd.

For GFDLDEYGIS / VIYADGKRTAYTDSVK / GNQAGTFDV [En_Gen], the assay gave 0.02, -0.06, -0.36, -0.12, -0.30, -0.36. For GFDLDEYGIS / VIYADGMRTAYADSVK / GENAGTFDQ [En_Gen], the assay gave -0.22, -0.64, 0.01, -0.56, -0.54, -0.47.

Top 7 of the variants detected in all replicates, tightest first:

CDR-H1	CDR-H2	CDR-H3	group	log10 Kd (nM) by replicate
GFQLDEYGIS	VIYADGRRTFYTDSVK	GGNAGTFDV	En_HC	-0.71, -0.92, -0.90, -0.98, -1.01, -0.73
GFDLDEYGIS	VIYADGKRTFYIDSVK	GETAGTFDS	En_HC	-0.26, -1.05, -1.11, -1.13, -0.80, -0.86
GFGLGEYGIS	VIYADGRRTFYSDDVK	GNMIVAGVD	En_Gibbs	-0.66, -0.63, -0.54, -0.74, -1.05, -0.96
GFDLNEYGIS	VIYADGRRTQYIDSVK	GNQAGTFDL	En_HC	-0.44, -0.72, -0.75, -1.07, -0.99, -0.53
GFDVEKYGIS	VIYADGYRSAYASSVK	GGEAGNFHV	En_Gibbs	-0.54, -0.83, -0.55, -0.96, -0.67, -0.44
GFDLNEYGIS	VIYADGRRTAYLDSVK	GEAAGTFDK	En_HC	-0.73, -0.53, -0.42, -0.52, -0.86, -0.56
GFDLNEYGIS	VIYADGKRTAYTDSVK	GNTAGTFDI	En_Gen	-0.43, -0.74, -0.71, -1.05, -0.27, -0.13

The parent sequence was in this pool as ten entries: three were never detected, three once, and four in most replicates, with averages from 0.34 to 2.37.
Values of this round are not directly comparable with the first-round values of the same sequences.
Nonspecific signal, from three strains lacking the peptide, appeared in 1% of pairings of all heavy chain designs, centred on 2.08 (5% of these signals below 0.84); values are not corrected for it.

From the AlphaSeq antibody data of Li et al. 2023 (doi:10.1038/s41467-023-39022-2), copy in the FLAb collection.